Laboratory results as given in US7884081B2, “Methods of modulating tubulin deacetylast activity” (The J. David Gladstone Institutes, priority 2002, dated 2011).

Sequences of proteins named here, by UniProt entry; tags and fusion partners are left off. A change or cut given only in a name is not applied to a line headed by its entry.
UniProt Q9UBN7: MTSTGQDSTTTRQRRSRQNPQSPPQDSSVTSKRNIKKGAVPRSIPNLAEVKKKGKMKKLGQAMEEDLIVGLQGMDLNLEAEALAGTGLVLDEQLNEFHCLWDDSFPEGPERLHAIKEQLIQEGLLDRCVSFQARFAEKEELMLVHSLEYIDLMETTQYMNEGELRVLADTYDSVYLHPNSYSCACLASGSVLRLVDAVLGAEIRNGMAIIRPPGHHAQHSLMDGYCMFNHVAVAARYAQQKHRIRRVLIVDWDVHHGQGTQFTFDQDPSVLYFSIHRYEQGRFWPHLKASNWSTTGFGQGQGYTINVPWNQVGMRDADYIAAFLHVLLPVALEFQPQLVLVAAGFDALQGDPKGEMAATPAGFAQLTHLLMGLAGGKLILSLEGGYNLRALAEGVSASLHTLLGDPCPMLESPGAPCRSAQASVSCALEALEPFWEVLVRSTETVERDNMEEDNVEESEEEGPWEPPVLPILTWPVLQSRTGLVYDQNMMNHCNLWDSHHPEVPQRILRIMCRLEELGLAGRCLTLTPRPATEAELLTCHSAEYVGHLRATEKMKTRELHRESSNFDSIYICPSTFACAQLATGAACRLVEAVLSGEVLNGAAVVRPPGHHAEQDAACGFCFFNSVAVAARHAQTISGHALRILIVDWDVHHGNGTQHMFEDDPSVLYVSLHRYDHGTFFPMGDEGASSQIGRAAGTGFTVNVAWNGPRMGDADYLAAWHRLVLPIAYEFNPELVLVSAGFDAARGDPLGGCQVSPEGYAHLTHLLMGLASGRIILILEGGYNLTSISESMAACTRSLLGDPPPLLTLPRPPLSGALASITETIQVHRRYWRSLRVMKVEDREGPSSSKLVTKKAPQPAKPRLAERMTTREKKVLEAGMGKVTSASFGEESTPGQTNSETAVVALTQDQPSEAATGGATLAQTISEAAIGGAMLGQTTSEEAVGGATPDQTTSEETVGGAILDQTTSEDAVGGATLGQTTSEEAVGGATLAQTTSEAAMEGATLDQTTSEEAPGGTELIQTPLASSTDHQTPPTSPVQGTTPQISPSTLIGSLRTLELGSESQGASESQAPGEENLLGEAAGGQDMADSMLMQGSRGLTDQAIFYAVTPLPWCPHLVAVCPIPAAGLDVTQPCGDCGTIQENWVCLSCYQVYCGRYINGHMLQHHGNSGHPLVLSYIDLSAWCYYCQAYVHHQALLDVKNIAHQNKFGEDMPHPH

Target: HDAC6-FLAG (Homo sapiens, UniProt Q9UBN7)
Assay: Histone deacetylase assay, immunoprecipitated HDAC6-FLAG on [3H]acetylated histone H4 peptide
Settings: 400 nM TSA

In the case of Trichostatin A, the “HDAC activity of HDAC6-FLAG” value is reported as “potently inhibited”.
